# Assay results from PubChem BioAssay AID2280 (The Scripps Research Institute Molecular Screening Center, 2010).
# The chains behind the UniProt entries cited, without tags or fusion partners.
# UniProt Q17339, whole entry: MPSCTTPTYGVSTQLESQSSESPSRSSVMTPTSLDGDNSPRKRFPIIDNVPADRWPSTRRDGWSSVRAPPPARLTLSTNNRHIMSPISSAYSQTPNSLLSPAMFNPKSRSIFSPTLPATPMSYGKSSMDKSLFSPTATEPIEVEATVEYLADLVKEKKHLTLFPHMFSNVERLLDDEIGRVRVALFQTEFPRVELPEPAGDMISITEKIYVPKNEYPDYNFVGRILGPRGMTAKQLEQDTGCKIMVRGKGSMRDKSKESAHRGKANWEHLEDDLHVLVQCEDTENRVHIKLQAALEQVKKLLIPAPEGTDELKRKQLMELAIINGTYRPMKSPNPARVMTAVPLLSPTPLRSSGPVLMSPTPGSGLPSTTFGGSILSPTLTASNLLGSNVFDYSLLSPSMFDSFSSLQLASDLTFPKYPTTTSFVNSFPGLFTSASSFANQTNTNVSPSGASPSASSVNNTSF
# Only a part is listed here, and it is no random draw. The source made the active and inactive calls.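 The calls were made as follows: active = percent inhibition above a per-plate cutoff, the plate mean of test compounds plus 3 SD (cut at about 30% in these data); inactive = the rest.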
# Target: Female germline-specific tumor suppressor gld-1 (Caenorhabditis elegans) (UniProt Q17339)
# Test: GLD-1/TGE RNA complex disruptors, primary screen, biochemical, fluorescence polarization (AID 2280);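 also: 0% = DMSO wells with GLD-1 and probe and 100% = wells lacking GLD-1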
# Conditions: purified GLD-1 + fluorescein TGE RNA, at 5.96 µM, stronger effect = higher value
row,SMILES,inhibition
1,CC1=NCCc2c1[nH]c1ccccc21.O=[N+]([O-])c1cc([N+](=O)[O-])c(O)c([N+](=O)[O-])c1,inactive: -5.52%
2,O=C(O)c1cccc(Nc2c([N+](=O)[O-])cc([N+](=O)[O-])cc2[N+](=O)[O-])c1,inactive: 3.84%
3,CP(=O)(Nc1cccc(Br)c1)Oc1ccccc1 (stereo unspecified),inactive: -5.33%
4,Cc1cc(C)cc(OP(C)(=O)Nc2ccccn2)c1 (stereo unspecified),inactive: -1.99%
5,Cc1ccc(C)c(NP(C)(=O)Oc2ccccc2)c1 (stereo unspecified),inactive: -1.44%
6,Cc1cc(C)cc(OP(C)(=O)Nc2ccc(C)cc2C)c1 (stereo unspecified),inactive: 1.66%
7,CCOC(=O)c1ccc(NP(C)(=O)Oc2cc(C)cc(C)c2)cc1 (stereo unspecified),inactive: 2.58%
8,COc1ccccc1OP(C)(=O)Nc1cccc(Br)c1 (stereo unspecified),inactive: 1.57%
9,Cc1nc2ccc3ccccc3c2s1.O=[N+]([O-])c1cc([N+](=O)[O-])c(O)c([N+](=O)[O-])c1,inactive: 0.68%
10,O=[N+]([O-])c1cc([N+](=O)[O-])c(-c2cnn(-c3ccccc3)c2)c([N+](=O)[O-])c1,inactive: -4.5%
11,O=[N+]([O-])c1cc([N+](=O)[O-])c(-n2nnc3ccccc32)c([N+](=O)[O-])c1,inactive: 4.46%
12,CP(=O)(Nc1ccc(SC(F)(F)F)cc1)Oc1ccccc1 (stereo unspecified),inactive: -2.94%
13,CCCOc1ccc(NP(C)(=O)Oc2ccc(Cl)cc2)cc1 (stereo unspecified),inactive: 0.26%
14,CN1CCCCC1COC(=O)C1(O)c2ccccc2CCc2ccccc21 (stereo unspecified),inactive: 1.53%
15,COc1ccccc1OP(C)(=O)Nc1c(C)cccc1C (stereo unspecified),inactive: 6.97%
16,O=[N+]([O-])c1cc([N+](=O)[O-])c(Nc2nnnn2CCO)c([N+](=O)[O-])c1,inactive: -1.04%
17,CC1=C2N=C(C=C3N=C(C(C)=C4[N-][C@@](C)([C@@H]5N=C1[C@](C)(CCC(=O)NC[C@@H](C)OP(=O)([O-])O[C@H]1[C@@H](O)[C@@H](n6cnc7cc(C)c(C)cc76)O[C@@H]1CO)[C@H]5CC(N)=O)[C@@](C)(CC(N)=O)[C@@H]4CCC(N)=O)[C@@](C)(CC(N)=O)[C@@H]3CCC(N)=O)C(C)(C)[C@@H]2CCC(N)=O.[C-]#N.[Co+3],inactive: 2.12%
18,CCOC(=O)C(CC)C1=NC(C)(C)Cc2ccccc21.O=[N+]([O-])c1cc([N+](=O)[O-])c(O)c([N+](=O)[O-])c1 (stereo unspecified),inactive: -2.22%
19,COc1ccccc1OP(C)(=O)Nc1ccccc1 (stereo unspecified),inactive: 15.2%

row,SMILES,inhibition
1,CP(=O)(Nc1ccccc1Br)Oc1ccccc1 (stereo unspecified),inactive: -1.9%
2,CP(=S)(Nn1cnnc1)Oc1ccccc1 (stereo unspecified),inactive: -0.38%
3,CP(=O)(Nc1ccccn1)Oc1ccc(Cl)cc1 (stereo unspecified),inactive: -4.45%
4,CCOP(C)(=S)SCC(=O)NC(C)C(=O)O (stereo unspecified),inactive: -0.38%
5,O=[N+]([O-])c1cc([N+](=O)[O-])c(O)c([N+](=O)[O-])c1.c1ccc(Oc2ccncc2)cc1,inactive: -0.2%
6,CCOC(=O)c1ccc(NP(C)(=O)Oc2ccc(OC)cc2)cc1 (stereo unspecified),inactive: 4.19%
7,CCc1ccc(OP(C)(=O)N2CCN(c3ccc([N+](=O)[O-])cc3)CC2)cc1 (stereo unspecified),inactive: -2.01%
8,CP(=O)(NC(=O)Nc1ccccc1)Oc1ccccc1 (stereo unspecified),inactive: -0.75%
9,Cc1cc(C)cc(OP(C)(=O)Nc2ccc(SC(F)(F)F)cc2)c1 (stereo unspecified),inactive: 5.63%
10,CP(=O)(Nc1ccc(SC(F)(F)F)cc1)Oc1ccc(Cl)cc1 (stereo unspecified),inactive: 8.98%
11,Cc1cccc(C)c1OP(C)(=O)Nc1ccc(SC(F)(F)F)cc1 (stereo unspecified),inactive: -1.34%
12,CP(=O)(Oc1ccccc1)OC(c1ccccc1)C(F)(F)F (stereo unspecified),inactive: 11.6%
13,CCN(CC)CCCOC(=O)C(O)(c1ccccc1)c1ccccc1,inactive: -0.09%
14,COc1ccccc1OP(C)(=O)Nc1cc(Cl)ccc1C (stereo unspecified),inactive: -2.54%
15,COc1ccc(OP(C)(=O)Nc2cccc(F)c2)cc1 (stereo unspecified),inactive: -0.35%
16,Cc1cc(C)cc(OP(C)(N)=O)c1 (stereo unspecified),inactive: 2.97%
17,CCOC(=O)c1ccc(NP(C)(=O)Oc2ccccc2)cc1 (stereo unspecified),inactive: 2.12%
18,Cc1ccc(NP(C)(=O)Oc2ccccc2)c(C)c1 (stereo unspecified),inactive: 1.34%
19,CC(C)(C)c1ccc(OP(C)(=O)Nc2ccc(SC(F)(F)F)cc2)cc1 (stereo unspecified),inactive: -6.72%

row,SMILES,inhibition
1,Cc1cccc(C)c1OP(C)(N)=O (stereo unspecified),inactive: -7.4%
2,O=[N+]([O-])c1ccc2c(c1)C=Nc1ccccc1O2,inactive: -0.05%
3,O=[N+]([O-])c1cc([N+](=O)[O-])c(Nc2cccnc2)c([N+](=O)[O-])c1,inactive: -3.98%
4,CP(=O)(OCCOc1ccccc1)OCCOc1ccccc1,inactive: 2.9%
5,CP(=O)(Nc1ccc(Cl)cc1Cl)Oc1ccccc1 (stereo unspecified),inactive: 2.36%
6,Cc1nc2ccc3ccccc3c2o1.O=[N+]([O-])c1cc([N+](=O)[O-])c(O)c([N+](=O)[O-])c1,inactive: 5.4%
7,COc1ccc(OP(C)(=O)Nc2ccccc2Br)cc1 (stereo unspecified),inactive: -0.01%
8,COc1ccccc1OP(C)(=O)Nc1ccc(C)c(C)c1 (stereo unspecified),inactive: 0.43%
9,Cc1cc(C)cc(OP(C)(=O)Nc2cccc(C(F)(F)F)c2)c1 (stereo unspecified),inactive: -6.5%
10,CCc1ccc(OP(C)(=O)O)cc1,inactive: -3.87%
11,CP(=O)(Nc1ccccn1)Oc1ccccc1 (stereo unspecified),inactive: 2.03%
12,COc1ccccc1OP(C)(=O)Nc1ccc(C)cc1C (stereo unspecified),inactive: 4.09%
13,O=[N+]([O-])c1cc([N+](=O)[O-])c(Nc2ccccn2)c([N+](=O)[O-])c1,inactive: 10.2%
14,Cc1c(NP(C)(=O)Oc2ccc(C(C)C)cc2)c(=O)n(-c2ccccc2)n1C (stereo unspecified),inactive: 0.95%
15,CN(C)CCOC(=O)C(O)(c1ccccc1)C1CCCC1 (stereo unspecified),inactive: -0.78%
16,COc1ccc(OP(C)(=O)Nc2ccccn2)cc1 (stereo unspecified),inactive: -4.05%
17,COc1ccccc1OP(C)(=O)Nc1ccc(Br)cc1 (stereo unspecified),inactive: -2.63%
18,CN(C)C(=O)c1c([N+](=O)[O-])cc([N+](=O)[O-])cc1[N+](=O)[O-],inactive: 5.85%
